Earlier results as cited in US6160011A (priority 1998, dated 2000).

Conditions: area under the plasma concentration-time profile, R- vs S-enantiomer, healthy male volunteers, single oral dose of racemate; cited from earlier work

For `C[C@](O)(CS(=O)(=O)c1ccc(F)cc1)C(=O)Nc1ccc(C#N)c(C(F)(F)F)c1` [R-Bicalutamide, reference compound], the “AUC relative to S-Casodex” value is given as 130 fold.
